Measured values reported in patent publication EP4703361A1, “PYRIDAZINONE TRPC4/5 INHIBITOR AND USE THEREOF” (Shanghai Institute of Materia Medica, Chinese Academy of …, priority 2023, dated 2024).

Target: T1, hTRPC5 (Homo sapiens, UniProt Q9UL62)
T1 construct: expressed in transfected cells; host or cells: HEK-293
T1 sequence (Q9UL62 1-973): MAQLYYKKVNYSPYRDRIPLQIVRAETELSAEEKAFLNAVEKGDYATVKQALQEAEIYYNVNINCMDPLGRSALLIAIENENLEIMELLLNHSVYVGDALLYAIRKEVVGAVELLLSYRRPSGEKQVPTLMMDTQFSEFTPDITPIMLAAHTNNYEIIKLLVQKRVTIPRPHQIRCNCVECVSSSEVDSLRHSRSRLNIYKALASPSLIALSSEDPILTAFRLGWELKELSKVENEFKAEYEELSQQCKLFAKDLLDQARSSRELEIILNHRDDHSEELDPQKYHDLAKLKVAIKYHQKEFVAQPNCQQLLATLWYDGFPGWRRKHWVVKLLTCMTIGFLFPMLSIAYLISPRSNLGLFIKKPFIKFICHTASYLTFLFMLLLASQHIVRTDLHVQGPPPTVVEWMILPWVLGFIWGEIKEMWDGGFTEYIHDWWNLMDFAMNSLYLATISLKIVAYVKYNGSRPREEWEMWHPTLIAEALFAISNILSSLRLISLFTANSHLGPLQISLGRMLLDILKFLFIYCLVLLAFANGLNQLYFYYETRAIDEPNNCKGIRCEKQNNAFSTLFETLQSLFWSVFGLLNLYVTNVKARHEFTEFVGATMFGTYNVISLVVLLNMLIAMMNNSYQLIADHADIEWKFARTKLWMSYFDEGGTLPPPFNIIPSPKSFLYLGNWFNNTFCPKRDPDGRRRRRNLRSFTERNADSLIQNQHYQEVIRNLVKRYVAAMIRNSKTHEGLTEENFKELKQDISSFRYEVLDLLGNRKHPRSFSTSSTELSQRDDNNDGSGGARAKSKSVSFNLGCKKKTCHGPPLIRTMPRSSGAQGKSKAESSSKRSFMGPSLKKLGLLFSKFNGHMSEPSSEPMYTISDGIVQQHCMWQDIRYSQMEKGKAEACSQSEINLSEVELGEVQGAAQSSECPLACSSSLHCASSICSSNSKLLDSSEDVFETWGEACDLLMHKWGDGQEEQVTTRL
Assay: TRPC5 inhibitory activity assay (FLIPR calcium flux, Fluo-4, agonist Englerin A)
Format: cell-based
Settings: HEK-293 cells expressing hTRPC5; agonist Englerin A 0.3 nM
Procedure: HEK-293 cells expressing hTRPC4 or hTRPC5 were seeded into polylysine (PDL)-coated, black-bottomed, transparent 96-well plates at 2 × 10^4 cells per well. After 8 h of culture, the culture medium was discarded and 60 µL of 4 µM Fluo-4/AM dye was added. The plates were incubated at 37°C for 60 min and then rinsed five times with calcium flux assay buffer. […] After recording for 60 seconds, solvent control, test compound and positive inhibitor were added, and the signal was collected for another 300 seconds. Then, the agonist Englerin A (EA) (MedChemExpress, Shanghai, China, final concentration of 0.3 nM) was added, and the fluorescence signal was collected for another 600 seconds. The fluorescence signal in the trajectory diagram was expressed as F/F0, wherein F was the fluorescence signal at different time points and F0 was the basic fluorescence signal, that is, the average of the fluorescence signals at the first 10 time points. The dose-effect curve is first established with F/F0 = 1 as the baseline. The area under the curve of the fluorescence intensity change after the addition of EA was calculated. The IC50 value was calculated using the log[Inhibitor] vs. response - Variable slope, combining the area under the curve and the log value of the compound concentration.

Compound: COC(c1cc(F)ccc1Cl)c1c(Br)nc2n1CCN(c1cn[nH]c(=O)c1Cl)C2 (stereo not shown) [Example E44, 5-(2-bromo-3-((2-chloro-5-fluorophenyl)(methoxy)methyl)-5,6-dihydroimidazo[1,2-a]pyrazin-7(8H)-yl)-4-chloropyridazin-3(2H)-one]
- IC50: 46.1 nM
